Target: delta opioid receptor (Rattus norvegicus, UniProt P33533)
Format: in vivo
Details: DPDPE 20 μg i.pl., vehicle pretreatment, rat hindpaw

Chains of the proteins cited; added tags and fusions are not shown.
UniProt P33533, whole entry: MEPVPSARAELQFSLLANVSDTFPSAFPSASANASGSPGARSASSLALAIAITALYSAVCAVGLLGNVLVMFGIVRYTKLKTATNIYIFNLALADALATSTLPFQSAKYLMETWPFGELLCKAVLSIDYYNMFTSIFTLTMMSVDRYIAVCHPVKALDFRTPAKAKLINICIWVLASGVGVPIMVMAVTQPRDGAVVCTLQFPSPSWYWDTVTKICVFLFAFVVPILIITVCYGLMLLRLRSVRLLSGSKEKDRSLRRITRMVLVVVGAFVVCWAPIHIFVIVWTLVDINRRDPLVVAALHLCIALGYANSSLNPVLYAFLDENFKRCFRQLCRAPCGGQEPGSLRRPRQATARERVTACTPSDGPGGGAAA

## [D‐Pen^2,5]‐Enkephalin [DPDPE, reference compound]
  effect of agonist on PGE2-stimulated thermal allodynia: reduced

From publication PMC8554411 (Pharmacology Research & Perspectives, 2021)
